US20040185510A1, “Use of labelled CCK-B receptor ligands for the detection and localization of malignant human tumours” (priority 1996, published 2004)

How the values were obtained:
[1] = target: T1, CCK-B receptors in medullary thyroid carcinoma (MTC) tissue sections (Homo sapiens, UniProt P32239); assay: Receptor autoradiography: displacement of [125I]-CCK-10 analog (compound 15) binding to MTC tissue sections; conditions: increasing concentrations of unlabelled peptide, optical density in tumour area
T1 construct: Receptor autoradiography is performed on 10- and 20-μm thick cryostat sections of the various tumour samples; from tissue; host or cells: human medullary thyroid carcinoma (MTC) tissue sections
T1 sequence (P32239 1-447): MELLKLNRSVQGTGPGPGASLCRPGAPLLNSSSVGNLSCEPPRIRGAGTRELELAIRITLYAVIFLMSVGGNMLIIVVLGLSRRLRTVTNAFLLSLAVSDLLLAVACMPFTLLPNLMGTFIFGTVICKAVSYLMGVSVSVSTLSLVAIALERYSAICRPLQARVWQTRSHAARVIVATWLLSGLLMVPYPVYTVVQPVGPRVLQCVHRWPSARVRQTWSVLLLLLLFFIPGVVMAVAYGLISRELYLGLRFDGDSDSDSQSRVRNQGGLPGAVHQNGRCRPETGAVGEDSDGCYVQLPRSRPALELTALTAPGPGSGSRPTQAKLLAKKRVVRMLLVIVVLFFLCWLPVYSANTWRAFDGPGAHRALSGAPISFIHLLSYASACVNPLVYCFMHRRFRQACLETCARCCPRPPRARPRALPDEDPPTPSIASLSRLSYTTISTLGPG

[2] = target: CCK-B receptors in small cell lung carcinoma (SCLC) tissue sections (Homo sapiens, UniProt P32239); assay: Receptor autoradiography: displacement of [125I]-CCK-10 analog (compound 15) binding to SCLC tissue sections; conditions: increasing concentrations of unlabelled peptide
[3] = target: T1, CCK-B receptors in medullary thyroid carcinoma (MTC) tissue sections; assay: Receptor autoradiography: displacement of [125I]-desulfated-CCK-10 (compound 13 or 14) binding to MTC tissue sections; conditions: increasing concentrations of unlabelled peptide

Asp-Tyr(SO3H)-Met-Gly-Trp-Met-Aso-Phe-NH2 (MGWM; Asp-Tyr(SO3H) prefix, Asp-Phe-NH2 suffix; printed: Met-Gly-Trp-Met-) [compound 16, reference compound]
complete displacement: displacement of [125I]-CCK-10 analog (compound 15) binding [1] | displacement of [125I]-CCK-10 analog (compound 15) binding [2] | displacement of [125I]-desulfated-CCK-10 (compound 13 or 14) binding [3]
